Measured water solubility values of organic chemicals

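OPERA's authors assembled the values from existing databases and did not measure them anew. The files give a single number for a compound and property, which may rest on several reports. How each value was measured is not recorded, so precision varies. A value may pool stereoisomers or salt forms, and the file does not say which form was measured. Some entries may be limits or estimates that an upstream database listed as plain numbers.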

Water solubility is log10 of mol/L, nominally at 25 °C; higher is more soluble.

O=c1cnc2c(=O)nc[nH]c2[nH]1 is reported with log S -2.817 (log10 mol/L). N#Cc1ccc(-c2cnc3ncc(Cc4ccc5ncccc5c4)n3n2)cc1F is reported with log S -3.182 (log10 mol/L). The entry for Nc1c(S(=O)(=O)O)ccc2ccccc12 lists log S -2.16 (log10 mol/L). For COc1cc(OC)nc(N=C(O)NS(=O)(=O)N(C)S(C)(=O)=O)n1 the data give log S -2.08 (log10 mol/L). O=c1[nH]cc(NS(=O)(=O)O)c(=O)[nH]1 has log S -1.766 (log10 mol/L).

The entry for Clc1cc(Cl)c(Cl)c(Oc2ccc(Cl)c(Cl)c2)c1 lists log S -7.83 (log10 mol/L). The entry for CN1CCN(CCCN2c3ccccc3Sc3ccc(S(=O)(=O)N(C)C)cc32)CC1 lists log S -3.895 (log10 mol/L). For CC(C)c1nc(C(=O)O)c(C(=O)O)[nH]1 the data give log S -1.792 (log10 mol/L). O=C(Nc1ccccc1)NC1CCCC1 is reported with log S -2.951 (log10 mol/L). Listed for CCCCCCCCCCCCCCCCCCSSCCCCCCCCCCCCCCCCCC: log S -6.058 (log10 mol/L).

Clc1cc(Cl)cc(Oc2ccc(Cl)c(Cl)c2)c1 is reported with log S -7.32 (log10 mol/L). For O=[N+]([O-])c1ccc2[nH]cnc2c1 the data give log S -2.815 (log10 mol/L). The entry for O=S(=O)(O)c1ccc2[nH]c(-c3ccccc3)nc2c1 lists log S -3.181 (log10 mol/L). Listed for Cn1c(=O)c2nc(C(=O)O)c(=O)[nH]c2n(C)c1=O: log S -2.323 (log10 mol/L). Listed for O=C(O)c1ccccc1-c1nn(-c2ccccc2)nc1C(=O)O: log S -2.189 (log10 mol/L).

Listed for CC(C)(C)c1nnc(NS(=O)(=O)c2ccc(N)cc2)s1: log S -3.74 (log10 mol/L). NC(=O)CCC(N)=O has log S -1.546 (log10 mol/L). Listed for O[C@H](c1ccccc1)c1ccc(Br)cc1: log S -4.379 (log10 mol/L). For O=C1CN(/N=C/C=C/c2ccc([N+](=O)[O-])o2)C(=S)N1 the data give log S -3.956 (log10 mol/L). Listed for CCCc1nc(C)c2c(=O)nc(-c3cc(S(=O)(=O)O)ccc3OCC)[nH]n12: log S -2.293 (log10 mol/L).

CC(=O)OCCN(CCC#N)c1ccc(N=Nc2ccc([N+](=O)[O-])cc2)cc1 has log S -4.28 (log10 mol/L). C[C@]1(CO)[C@H]2CC[C@]1(C)C(=O)C2 has log S -0.279 (log10 mol/L). Listed for CC(C)=NNC(=O)Nc1ccccc1: log S -2.327 (log10 mol/L). Nc1nc(N)c(N=O)c(N)n1 is reported with log S -3.845 (log10 mol/L). The entry for CCCCCCN1CC(C(=O)O)CC1=O (stereo not drawn) lists log S -1.456 (log10 mol/L).

For CCOC(=O)C(CCc1ccccc1)NC1CCCN2CCCC(C(=O)O)N2C1=O.O (stereo not drawn) the data give log S -2.614 (log10 mol/L). The entry for CCCOc1ccc(C(=O)OCCN(CC)CC)cc1N lists log S -2.326 (log10 mol/L). The entry for OCC(O)=Nc1ccccc1 lists log S -0.447 (log10 mol/L). Nc1ccc(Cl)c(Cl)c1Cl is reported with log S -3.47 (log10 mol/L). Cc1cc2c(cn1)Cc1cccc(C)c1-2 has log S -1.575 (log10 mol/L).

The entry for CC(=O)NO lists log S 0.831 (log10 mol/L). Cc1ccc2c(c1)[C@H](Nc1nc(N)nc(C(C)F)n1)[C@@H](C)C2 (stereo partly specified) is reported with log S -5.03 (log10 mol/L). The entry for COCCCNc1nc(Cl)nc(NC(C)C)n1 lists log S -3.36 (log10 mol/L). Listed for C[C@@H](O)[C@H]1C(=O)N2C(C(=O)O)=C(S[C@@H]3CN[C@H](C(=O)Nc4cccc(C(=O)O)c4)C3)[C@H](C)[C@H]12: log S -3.221 (log10 mol/L). CCCCOC(=O)C1C(C(=O)OCCCC)C2(Cl)C(Cl)=C(Cl)C1(Cl)C2(Cl)Cl (stereo not drawn) is reported with log S -7.51 (log10 mol/L).

For O=S(=O)([O-])[O-].[NH3+]c1nc(NC2CC2)c2ncn(C3C=CC(CO)C3)c2n1.[NH3+]c1nc(NC2CC2)c2ncn(C3C=CC(CO)C3)c2n1 (stereo not drawn) the data give log S -0.94 (log10 mol/L).

The first 5 entries again:

SMILES	log S (log10 mol/L)
O=c1cnc2c(=O)nc[nH]c2[nH]1	-2.817
N#Cc1ccc(-c2cnc3ncc(Cc4ccc5ncccc5c4)n3n2)cc1F	-3.182
Nc1c(S(=O)(=O)O)ccc2ccccc12	-2.16
COc1cc(OC)nc(N=C(O)NS(=O)(=O)N(C)S(C)(=O)=O)n1	-2.08
O=c1[nH]cc(NS(=O)(=O)O)c(=O)[nH]1	-1.766

Data: OPERA 2.9 data sets, kmansouri/OPERA on GitHub.